*1 amine or outer side, *2 acyl side, *3 side chain or, on linkers, in order; H or OH if unused. Where a SMILES comes first, the peptide text is derived from it. [ ]: non-standard residue; d: D form. X1 = CC[C@@H](C)[C@@H](O[*:1])C(=O)[*:2]; NMeVal(β-OH) = CN[C@H](C(=O)O)C(C)(C)O; NMeF = CN[C@@H](Cc1ccccc1)C(=O)O; aIle = CC[C@@H](C)[C@H](N)C(=O)O; NMeV = CN[C@H](C(=O)O)C(C)C
System: Schizo. pombe mutants THR01, THR04, THR05, THR06 and THR07
Assay: Drug resistance of aureobasidin-resistant mutants of Schizo. pombe
Conditions: for sensitivity of the mutants compared with the parent strain: EMS mutants THR01, THR04, THR05, THR06, THR07 vs JY745

| Compound | sensitivity of the mutants compared with the parent strain | resistant to (concentration of aureobasidin A) (EMS mutants THR01, THR04, THR05, THR06, THR07) |
| --- | --- | --- |
| C[C@@H]1[C@H](O)[C@@H](C)/C=C/C=C/C=C/C=C/C=C/C=C/C=C/[C@H](O[C@@H]2O[C@H](C)[C@@H](O)[C@H](N)[C@@H]2O)C[C@@H]2O[C@](O)(C[C@@H](O)C[C@@H](O)[C@H](O)CC[C@@H](O)C[C@@H](O)CC(=O)O[C@H]1C)C[C@H](O)[C@H]2C(=O)O [amphotericin B] | the same as the parent strain |  |
| CC[C@@H](C)[C@@H]1NC(=O)[C@@H]2CCCN2C(=O)[C@H](Cc2ccccc2)N(C)C(=O)[C@H](Cc2ccccc2)NC(=O)[C@H](C(C)C)N(C)C(=O)[C@@H]([C@H](C)CC)OC(=O)[C@H](C(C)(C)O)N(C)C(=O)[C@H](CC(C)C)NC(=O)[C@H](C(C)C)N(C)C1=O [aureobasidin A] (cyclo(F[NMeF]P[aIle][NMeV]L[NMeVal(β-OH)][X1][NMeV])) |  | more than 25 μg/ml |
| C[C@@H]1C[C@@H]([C@H](O)CC2CC(=O)NC(=O)C2)C(=O)[C@@H](C)C1 [cycloheximide] | the same as the parent strain |  |

— patent publication US6693174B2, “Gene regulating aureobasidin sensitivity” (Takara Shuzo Co., Ltd., priority 1993, dated 2004)
